Measurements taken from patent publication US20060094649A1 (published 2006).
Blank lines part the entries; values can stand above or below the binder they belong to.

Assays:
HLA-B*1801 [1] = target: HLA-B*1801 (human); test: purified HLA, inhibition of labeled probe peptide
HLA-B*4402 [2] = target: HLA-B*4402 (human); test: purified HLA, inhibition of labeled probe peptide
HLA-B*4402 [3] = target: HLA-B*4402 (human); test: competitive inhibition of radiolabeled probe peptide, purified HLA
HLA-B*4403 [4] = target: HLA-B*4403 (human); test: as above
HLA-B*4001 [5] = target: HLA-B*4001 (human); test: purified HLA, inhibition of labeled probe peptide
HLA-B*4403 [6] = target: HLA-B*4403 (human); test: purified HLA, inhibition of labeled probe peptide
HLA-B*4402 [7] = target: HLA-B*4402 (human); test: competition with radiolabeled probe peptide, purified HLA
HLA-B*4403 [8] = target: HLA-B*4403 (human); test: as above
HLA-B*4501 = HLA-B*4501 (human); test: as above
HLA-B*1801 [9] = target: HLA-B*1801 (human); test: as above
HLA-B*4002 [10] = target: HLA-B*4002 (human); test: as above
HLA-A*0101 = HLA-A*0101 (human); test: inhibition of 125I-J chain peptide probe, purified HLA
HLA-B*1801 [11] = target: HLA-B*1801 (human); test: competitive inhibition of radiolabeled probe peptide, purified HLA
HLA-B*4001 [12] = target: HLA-B*4001 (human); test: competition with radiolabeled probe peptide, purified HLA
HLA-B*4002 [13] = target: HLA-B*4002 (human); test: purified HLA, inhibition of labeled probe peptide

- IC50 (HLA-B*1801 [1]): 10.8 µM
- IC50 (HLA-B*4402 [2]): 6.34 µM
B1: PETQDATY (peptide)
peptide: PETQDATY

- IC50 (HLA-B*4402 [3]): 8.04 µM
- IC50 (HLA-B*4403 [4]): 2.76 µM
B2: TEDPGPDEA (p53, position 55, 9-mer) (peptide)
peptide: TEDPGPDEA

- IC50 (HLA-B*1801 [1]): 15.6 µM
- IC50 (HLA-B*4001 [5]): 11.1 µM
- IC50 (HLA-B*4403 [6]): 1.21 µM
B3: CEPEAQNTT (peptide)
peptide: CEPEAQNTT

- IC50 (HLA-B*1801 [1]): 9.35 µM
- IC50 (HLA-B*4403 [6]): 0.915 µM
B4: PETQDATYLW (peptide)
peptide: PETQDATYLW

- IC50 (HLA-B*4402 [7]): 5.81 µM
- IC50 (HLA-B*4403 [8]): 4.66 µM
- IC50 (HLA-B*4501): 9.32 µM
B5: Her2/neu 394 PEQLQVFET (peptide)
peptide: PEQLQVFET

- IC50 (HLA-B*1801 [9]): 7.44 µM
- IC50 (HLA-B*4402 [7]): 9.02 µM
- IC50 (HLA-B*4403 [8]): 5.78 µM
- IC50 (HLA-B*4501): 15.1 µM
B6: Her2/neu 1194 PEYLTPQGGA (peptide)
peptide: PEYLTPQGGA

- IC50 (HLA-B*1801 [9]): 1.75 µM
- IC50 (HLA-B*4002 [10]): 8.71 µM
B7: Her2/neu 400 FETLEEITG (peptide)
peptide: FETLEEITG

- IC50 (HLA-B*4402 [2]): 0.787 µM
- IC50 (HLA-B*4403 [6]): 0.536 µM
B8: CEPETQDATY (peptide)
peptide: CEPETQDATY

- IC50 (HLA-B*1801 [9]): 14.5 µM
- IC50 (HLA-B*4501): 4.42 µM
B9: Her2/neu 378 PESFDGDPA (peptide)
peptide: PESFDGDPA

- IC50 (HLA-B*1801 [9]): 1.05 µM
- IC50 (HLA-B*4403 [8]): 5.33 µM
B10: Her2/neu 403 LEEITGYLY (peptide)
peptide: LEEITGYLY

- IC50 (HLA-B*4501): 7.16 µM
B11: Her2/neu 1167 LERPKTLSPG (peptide)
peptide: LERPKTLSPG

- IC50 (HLA-A*0101): 2.08 µM
B12: Her2/neu.1014 MGDLVDAEEY (peptide)
peptide: MGDLVDAEEY

- IC50 (HLA-B*4002 [10]): 18.3 µM
- IC50 (HLA-B*4403 [8]): 10.5 µM
B13: Her2/neu 873 DETEYHA (peptide)
peptide: DETEYHA

- IC50 (HLA-B*1801 [11]): 9.45 µM
- IC50 (HLA-B*4402 [3]): 5.97 µM
B14: EEPQSDPSV (p53, position 2, 9-mer) (peptide)
peptide: EEPQSDPSV

- IC50 (HLA-B*4001 [12]): 14.7 µM
- IC50 (HLA-B*4403 [8]): 12.1 µM
B15: Her2/neu 1191 VENPEYL (peptide)
peptide: VENPEYL

- IC50 (HLA-B*4002 [13]): 9.28 µM
B16: PEAQNTTYL (peptide)
peptide: PEAQNTTYL

- IC50 (HLA-B*4002 [10]): 3.13 µM
- IC50 (HLA-B*4403 [8]): 0.506 µM
B17: Her2/neu 502 DECVGEGLA (peptide)
peptide: DECVGEGLA

- IC50 (HLA-B*4402 [2]): 13.7 µM
- IC50 (HLA-B*4403 [6]): 0.904 µM
B18: AEPPKPFI (peptide)
peptide: AEPPKPFI

- IC50 (HLA-B*4001 [12]): 15.5 µM
- IC50 (HLA-B*4403 [8]): 5.08 µM
B19: Her2/neu 39 PETHLDM (peptide)
peptide: PETHLDM

- IC50 (HLA-B*4501): 15.1 µM
B20: Her2/neu 285 PEGRYTFGA (peptide)
peptide: PEGRYTFGA

- IC50 (HLA-B*1801 [9]): 6.69 µM
- IC50 (HLA-B*4402 [7]): 4.22 µM
B21: Her2/neu 500 PEDECVGEGLA (peptide)
peptide: PEDECVGEGLA

- IC50 (HLA-B*1801 [9]): 7.26 µM
- IC50 (HLA-B*4501): 5.18 µM
B22: Her2/neu 209 SEDCQSLTRT (peptide)
peptide: SEDCQSLTRT

- IC50 (HLA-B*1801 [9]): 9.15 µM
- IC50 (HLA-B*4001 [12]): 5.39 µM
B23: Her2/neu 394 PEQLQVFETLEEI (peptide)
peptide: PEQLQVFETLEEI

- IC50 (HLA-B*4403 [4]): 5.43 µM
B24: PEAAPPV (p53, position 67, 7-mer) (peptide)
peptide: PEAAPPV
